Literature values as cited in US10617654B2, “Use of fenoterol and fenoterol analogues in the treatment of glioblastomas and astrocytomas” (priority 2010, dated 2020).

Protein sequences, listed by entry. Tags and fused reporters are not part of them.
UniProt P07550, whole entry: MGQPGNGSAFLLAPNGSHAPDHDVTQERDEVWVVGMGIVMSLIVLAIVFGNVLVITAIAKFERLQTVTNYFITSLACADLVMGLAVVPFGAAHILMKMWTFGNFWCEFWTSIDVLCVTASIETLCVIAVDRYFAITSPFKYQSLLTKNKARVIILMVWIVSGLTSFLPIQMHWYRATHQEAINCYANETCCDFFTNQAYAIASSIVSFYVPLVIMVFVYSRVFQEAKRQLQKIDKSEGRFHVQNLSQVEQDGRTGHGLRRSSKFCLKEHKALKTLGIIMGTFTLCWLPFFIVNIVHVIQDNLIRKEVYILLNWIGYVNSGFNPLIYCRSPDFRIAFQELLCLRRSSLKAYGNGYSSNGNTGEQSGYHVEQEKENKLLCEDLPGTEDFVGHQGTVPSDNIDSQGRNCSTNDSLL

Molecular target: β2-AR (Homo sapiens (Human), UniProt P07550)
Settings: previously reported, cited from earlier work

## COc1ccc(C[C@@H](C)NC[C@H](O)c2ccc(O)c3[nH]c(=O)ccc23)cc1
  Ki β1/Ki β2: 53
read-out: β2 Ki
  Ki: 12 nM
